Here are results for one molecule from US20200399318A1, “PEPTIDE INHIBITORS OF PHOSPHOGLYCERATE MUTASE AND METHODS OF USE” (priority 2016, published 2020).

Protein sequences, listed by entry. Tags and fused reporters are not part of them.
UniProt G5EFZ1, whole entry, looked up: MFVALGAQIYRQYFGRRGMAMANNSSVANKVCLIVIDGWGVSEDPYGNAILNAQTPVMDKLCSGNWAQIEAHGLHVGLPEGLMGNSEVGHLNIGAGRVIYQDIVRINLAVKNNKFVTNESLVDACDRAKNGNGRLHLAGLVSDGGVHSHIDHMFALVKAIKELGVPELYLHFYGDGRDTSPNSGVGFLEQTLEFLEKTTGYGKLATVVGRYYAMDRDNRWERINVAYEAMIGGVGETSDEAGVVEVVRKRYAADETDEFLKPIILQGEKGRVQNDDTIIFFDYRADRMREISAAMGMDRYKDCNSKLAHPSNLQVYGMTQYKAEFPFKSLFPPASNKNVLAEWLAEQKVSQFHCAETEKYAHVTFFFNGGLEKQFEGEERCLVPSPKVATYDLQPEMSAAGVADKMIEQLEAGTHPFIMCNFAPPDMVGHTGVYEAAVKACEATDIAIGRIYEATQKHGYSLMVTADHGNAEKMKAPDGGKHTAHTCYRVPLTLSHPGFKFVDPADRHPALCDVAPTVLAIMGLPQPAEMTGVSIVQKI

The experiment deals with C. elegans iPGM (Caenorhabditis elegans, UniProt G5EFZ1). Put plainly: PGM coupled-enzyme bioluminescent end-point assay (Kinase-Glo Plus), 1536-well. The following applies: 5 nM C. elegans iPGM, 0.4 mM 3PG; ± s.d. or s.e. of fit; NA = no appreciable inhibition.

In the case of `CC(C)C[C@@H]1NC(=O)[C@@H](Cc2ccc(O)cc2)NC(=O)CSC[C@@H](C(=O)N[C@@H](CC(N)=O)C(=O)N[C@H](C(=O)N[C@@H](CS)C(N)=O)[C@@H](C)O)NC(=O)[C@H](CC(N)=O)NC(=O)[C@@H]2CCCN2C(=O)[C@H](Cc2c[nH]c3ccccc23)NC(=O)[C@H](CCC(=O)O)NC1=O`, the “C. elegans iPGM PIC50, M” value was 5.61 ± 0.23 M.
